Results reported in patent US20250034201A1, “PRODRUGS OF GANAXOLONE” (priority 2022, published 2025).

Format: in vitro ADME
Method: For several compounds only human liver microsomal stability was tested. […] The microsomal assays were carried out with and without the addition of NADPH at a final concentration of 1 mM. For negative control samples, NADPH reagent was not added. […] Note that compounds undergo only Phase I metabolism in liver microsomes.

Compound: CC(=O)[C@H]1CC[C@H]2[C@@H]3CC[C@H]4C[C@](C)(CC(=O)COC(=O)NCCN(C)C)CC[C@]4(C)[C@H]3CC[C@]12C [Compound 217]
- Comments: production of GNX (ganaxolone) in human liver microsomes: In human small amount of GNX produced
